Results from ChEMBL document CHEMBL1144844, “Synthesis and characterization of 5,6,7,8-tetrahydroquinoline C5a receptor antagonists” (Bioorg Med Chem Lett, 2008).

Biological target: T1, C5a anaphylatoxin chemotactic receptor 1 (Homo sapiens, UniProt P21730)
T1 sequence (P21730 whole entry): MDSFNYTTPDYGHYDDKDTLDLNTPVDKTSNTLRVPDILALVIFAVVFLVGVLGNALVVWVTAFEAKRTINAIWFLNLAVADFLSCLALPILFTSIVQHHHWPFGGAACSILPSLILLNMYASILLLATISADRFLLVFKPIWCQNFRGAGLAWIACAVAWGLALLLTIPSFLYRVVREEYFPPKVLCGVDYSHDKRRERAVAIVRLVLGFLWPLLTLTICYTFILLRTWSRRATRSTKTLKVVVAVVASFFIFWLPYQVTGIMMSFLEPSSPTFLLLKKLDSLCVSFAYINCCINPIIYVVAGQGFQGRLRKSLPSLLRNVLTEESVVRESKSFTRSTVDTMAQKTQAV
Test: Displacement of [125I]C5a from human C5a receptor in U937 cells
Type: cell-based, U-937
How it was run: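 Competition binding on U937 cells that had been differentiated for 48–72 h with 1 mM dibutyryl cAMP. Compound in 1% DMSO was pre-incubated for 30 min at 25 °C. Then 0.05 nM Bolton–Hunter [¹²⁵I]-C5a was added for 60 min at 4 °C. Non-specific binding was defined with 100 nM C5a. Cells were filtered on PEI-soaked GF/B and counted by scintillation.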

Work on `CCc1cccc(CC)c1-c1cc(OC)c2c(n1)CCCC2N(CC)c1cccc2ccccc12` (stereo in doubt; 27) yielded a Ki of 8.9 nM.
